AlphaSeq binding of Ab-14 heavy chain variants to a spike HR2 peptide

Data: MIT Lincoln Laboratory AlphaSeq set, Li et al. 2023, doi:10.1038/s41467-023-39022-2, as distributed in FLAb.

Antigen: PDVDLGDISGINAS, a 14-residue peptide of the SARS-CoV-2 spike HR2 region.

Ab-14 is the parent antibody, in scFv form: VH, then three GGGGS repeats, then VL. The light chain is unchanged in all variants.
VH: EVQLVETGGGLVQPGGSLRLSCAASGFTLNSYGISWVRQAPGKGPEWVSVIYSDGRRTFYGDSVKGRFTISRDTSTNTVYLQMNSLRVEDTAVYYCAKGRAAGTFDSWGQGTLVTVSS
VL: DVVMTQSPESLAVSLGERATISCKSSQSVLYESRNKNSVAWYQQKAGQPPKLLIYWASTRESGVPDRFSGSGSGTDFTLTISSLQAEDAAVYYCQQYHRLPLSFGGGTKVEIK

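The variants were designed computationally from a first round of random CDR variants and then made and measured. Their group label is 14H_GPLM_Gen (GPLM: also part of the Gaussian process libraries; Gen: genetic algorithm; a sequence that several methods proposed may carry one label only). The scFvs were displayed on barcoded MATa yeast, the peptide on MATalpha yeast. After mating in shaken culture at 30 °C for 16 h, diploids were selected and their barcode pairs sequenced. Scores were corrected for input abundance and mapped to Kd with protein pairs of known affinity run in the same pool. Each pool was mated in six replicate cultures.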

Positions count from residue 1 of the parent VH; S31E puts E in place of S. Values are log10 of the apparent Kd in nM; lower means stronger binding. Replicates are averaged; those with no signal do not enter the mean. Where no diploid with the target was found in that replicate, the entry reads "n.d.": below detection, most likely a poor binder, though not proof of it. A sequence measured in both rounds can read differently, since the two assays cover different ranges. Background: pairings of all heavy chain designs with three empty control strains gave a value in 1% of cases (median 2.08, 5th percentile 0.84). Values in that range, when seen in few replicates, are hard to tell from nonspecific mating. For each scFv, signals with the empty controls are counted beside the result, with their mean in brackets. In the paper, a design with two or fewer of six values counts as a poor binder.

| # | changes | log10 Kd, replicates | mean log10 Kd (nM) | control signals |
|---|---|---|---|---|
| 1 | S31E/R100E/S107L | n.d. n.d. n.d. n.d. n.d. n.d. | n.d. | 0 of 18 |
| 2 | T28S/S31N/A101V | 0.62 0.58 0.48 0.64 1.53 0.95 | 0.80 | 0 of 18 |
| 3 | T28S/S31D/R100K/A101T | -0.11 0.12 -0.05 -0.16 -0.12 0.07 | -0.04 | 0 of 18 |
| 4 | G26K/T28S/R100E | 0.56 0.75 0.34 0.34 1.18 0.83 | 0.67 | 0 of 18 |
| 5 | T28S/S31E/G61T/A101E | 0.93 -0.62 0.01 0.21 0.01 0.66 | 0.20 | 0 of 18 |
| 6 | T28S/G61A/T104K | n.d. n.d. n.d. n.d. n.d. n.d. | n.d. | 0 of 18 |
| 7 | T28L/G61A/R100K/A101T | 0.34 0.49 0.13 0.51 0.10 0.38 | 0.32 | 0 of 18 |
| 8 | T28D/G61H/R100E | 0.82 0.25 0.19 0.89 0.62 0.34 | 0.52 | 1 of 18 (1.93) |
| 9 | T28S/G61H/R100S | 1.67 0.31 0.63 0.17 0.51 0.16 | 0.57 | 1 of 18 (2.13) |
| 10 | T28S/S31N/S63E/A101T | 0.17 0.14 0.12 0.48 -0.03 0.46 | 0.22 | 0 of 18 |
| 11 | T28S/N30K/G61A/A101T | 0.40 0.78 0.26 0.66 0.22 1.16 | 0.58 | 0 of 18 |
| 12 | T28S/S31N/R100Q/S107T | n.d. 1.12 1.01 0.90 0.50 n.d. | 0.88 | 0 of 18 |
| 13 | S31D/G61S/A101V | 0.35 -0.27 -0.50 -0.14 0.01 0.25 | -0.05 | 0 of 18 |
| 14 | T28N/S63N/A101T | n.d. n.d. n.d. n.d. n.d. n.d. | n.d. | 0 of 18 |
| 15 | A101T/S107T | n.d. 0.15 n.d. 1.60 0.44 1.74 | 0.98 | 1 of 18 (1.59) |
| 16 | T28D/G61A/R100Q/A101E | n.d. n.d. n.d. n.d. n.d. n.d. | n.d. | 0 of 18 |
| 17 | T28E/G61T/R100L/A101T | -0.07 -0.13 0.27 -0.42 -0.11 -0.05 | -0.09 | 0 of 18 |
| 18 | T28S/G61V/R100Q/S107L | 1.47 1.95 0.93 1.92 1.04 1.13 | 1.41 | 0 of 18 |
| 19 | G26S/T28S/G61A/R100K | n.d. n.d. n.d. n.d. n.d. n.d. | n.d. | 0 of 18 |
| 20 | T28S/S31E/R100Q/S107T | 0.03 -0.07 -0.37 -0.49 -0.22 0.23 | -0.15 | 0 of 18 |
| 21 | T28H/R56M/G61A/A101T | 0.32 0.36 0.23 0.23 0.35 0.33 | 0.30 | 1 of 18 (2.31) |
| 22 | T28S/G61A/S63D/R100E | 0.14 -0.44 -0.29 -0.78 0.01 -0.64 | -0.33 | 0 of 18 |
| 23 | T28S/G61A/R100S/A101V | 0.61 0.45 0.33 0.74 0.42 0.18 | 0.46 | 1 of 18 (2.63) |
| 24 | T28S/R100Q/A101T/S107Q | 0.76 0.74 0.47 0.71 0.18 1.01 | 0.64 | 1 of 18 (1.86) |
| 25 | T28D/S31T/G61A | 0.52 -0.04 -0.31 -0.27 -0.81 0.33 | -0.09 | 0 of 18 |
| 26 | T28E/G61E/A101T | 0.87 1.07 0.21 -0.27 0.25 0.18 | 0.38 | 0 of 18 |
| 27 | T28G/G61S/R100Q | 1.01 0.44 0.19 0.50 0.74 0.43 | 0.55 | 0 of 18 |
| 28 | T28E/S31E/A101N/S107T | 0.30 -0.12 -0.14 -0.30 -0.08 -0.37 | -0.12 | 1 of 18 (1.38) |
| 29 | T28S/S31E/R100Q/S107L | n.d. n.d. n.d. n.d. n.d. n.d. | n.d. | 0 of 18 |
| 30 | T28S/G61A/R100Q | n.d. n.d. n.d. n.d. n.d. 1.65 | 1.65 | 0 of 18 |
| 31 | T28S/G61A/R100K/S107Q | 0.39 0.54 0.21 0.50 0.18 0.59 | 0.40 | 0 of 18 |
| 32 | T28N/G61V | 1.09 0.36 2.43 n.d. n.d. n.d. | 1.29 | 0 of 18 |
| 33 | T28S/G61I/A101V | 1.68 1.86 1.45 1.47 n.d. n.d. | 1.61 | 0 of 18 |
| 34 | T28S/S31E/R56K | 0.45 -0.08 0.17 -0.15 -0.08 0.03 | 0.06 | 0 of 18 |
| 35 | G26H/T28S/A101T | n.d. n.d. n.d. n.d. n.d. n.d. | n.d. | 0 of 18 |
| 36 | T28E/S31E/A101T/S107K | -0.12 0.20 0.28 0.28 -0.29 0.36 | 0.12 | 0 of 18 |
| 37 | A101Q/S107T | 2.59 1.87 1.23 1.89 1.61 2.19 | 1.90 | 0 of 18 |
| 38 | T28S/A101E/S107K | -0.11 0.10 -0.29 -0.07 0.03 -0.20 | -0.09 | 0 of 18 |
| 39 | T28H/S53A/R100Q | 0.84 0.90 1.32 0.64 0.74 1.27 | 0.95 | 0 of 18 |
| 40 | S53A/A101T/S107T | 0.50 0.14 0.03 0.33 -0.23 0.27 | 0.17 | 0 of 18 |
| 41 | T28E/S31E/G61T/A101T | -0.07 0.14 0.29 -0.08 -0.20 0.23 | 0.05 | 0 of 18 |
| 42 | T28D/G61C/R100K | n.d. n.d. 2.03 2.77 n.d. n.d. | 2.40 | 0 of 18 |
| 43 | R56K/G61S/R100Q/S107T | 1.46 1.56 0.82 1.65 0.92 1.53 | 1.32 | 1 of 18 (1.70) |
| 44 | L29I/G61S/R100Q | n.d. 1.71 1.72 1.20 1.23 0.74 | 1.32 | 0 of 18 |
| 45 | R56M/A101T | 1.14 0.93 1.03 0.79 0.10 0.62 | 0.77 | 0 of 18 |
| 46 | T28S/A101T/S107R | 0.89 1.49 0.33 0.23 0.84 1.61 | 0.90 | 0 of 18 |
| 47 | S31E/F59M/A101T | 0.84 0.55 0.27 0.11 0.27 0.42 | 0.41 | 0 of 18 |
| 48 | T28S/G61A/S63A/R100Q | 0.44 0.30 -0.11 0.31 0.42 0.56 | 0.32 | 0 of 18 |
| 49 | T28S/R100K/S107H | 0.64 0.07 0.02 0.20 0.87 0.24 | 0.34 | 0 of 18 |
| 50 | T28S/S31Q/A101N | 0.60 0.60 -0.34 0.13 -0.38 -0.34 | 0.05 | 0 of 18 |